Laboratory results published in US7179495B1 (Universitaetsklinikum Freiburg, priority 1998, dated 2007).

System: MT450 cells (mammary carcinoma)
Settings: rats; daily intratumour injection of 500 μg in 10% DMSO/PBS; day 0 to day 30; FIG. 4
Protocol: A treatment with the same concentrations of the cytostatic agent taxol was carried out for comparison. Each treatment group consisted of 8 experimental animals; the treatment was carried out blind (blind experiment). 1 million tumour cells were injected into each animal. Intratumour injections were started after 3 weeks. […] The tumour volume was measured planimetrically 8 times, from the start of the tumour injections (day 0) until the conclusion of the treatment (day 30) and recorded as a growth curve (mean value +/− standard deviation) in FIG. 4.

## CC(C)=CCC[C@]1(C)[C@@H](CC=C(C)C)CC2(CC=C(C)C)C(=O)C(CC=C(C)C)=C(O)C1(C(=O)C(C)C)C2=O (stereo partly shown) [hyperforin]
  tumour growth (tumour volume) in vivo: significantly inhibits the growth
